Experimental findings from article PMC12706802, “Ortho-Hydroxyanilides: Slow-Acting, Selective Histone Deacetylase 1/2 Inhibitors Suitable for Photocaging Applications” (ACS Pharmacology & Translational Science, 2025) are described below.

By UniProt entry, the sequences of proteins in these tests, tags left out.
UniProt Q13547, whole entry: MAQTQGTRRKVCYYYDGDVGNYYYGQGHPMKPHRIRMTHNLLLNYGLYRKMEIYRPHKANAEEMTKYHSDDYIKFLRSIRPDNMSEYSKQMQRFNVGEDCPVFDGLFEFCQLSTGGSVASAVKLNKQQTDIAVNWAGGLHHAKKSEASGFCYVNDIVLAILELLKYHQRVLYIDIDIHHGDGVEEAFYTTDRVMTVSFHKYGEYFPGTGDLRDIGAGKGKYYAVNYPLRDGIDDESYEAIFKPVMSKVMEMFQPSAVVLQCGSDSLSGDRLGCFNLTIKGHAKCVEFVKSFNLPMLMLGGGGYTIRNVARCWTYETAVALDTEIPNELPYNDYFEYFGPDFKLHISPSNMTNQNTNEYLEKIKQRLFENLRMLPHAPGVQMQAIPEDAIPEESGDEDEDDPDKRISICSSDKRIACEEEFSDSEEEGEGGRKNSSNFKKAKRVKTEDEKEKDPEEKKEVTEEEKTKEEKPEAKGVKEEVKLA

Test [1] addresses T1, human recombinant HDAC6 (Homo sapiens, UniProt Q9UBN7).
T1 sequence (Q9UBN7 1-1215): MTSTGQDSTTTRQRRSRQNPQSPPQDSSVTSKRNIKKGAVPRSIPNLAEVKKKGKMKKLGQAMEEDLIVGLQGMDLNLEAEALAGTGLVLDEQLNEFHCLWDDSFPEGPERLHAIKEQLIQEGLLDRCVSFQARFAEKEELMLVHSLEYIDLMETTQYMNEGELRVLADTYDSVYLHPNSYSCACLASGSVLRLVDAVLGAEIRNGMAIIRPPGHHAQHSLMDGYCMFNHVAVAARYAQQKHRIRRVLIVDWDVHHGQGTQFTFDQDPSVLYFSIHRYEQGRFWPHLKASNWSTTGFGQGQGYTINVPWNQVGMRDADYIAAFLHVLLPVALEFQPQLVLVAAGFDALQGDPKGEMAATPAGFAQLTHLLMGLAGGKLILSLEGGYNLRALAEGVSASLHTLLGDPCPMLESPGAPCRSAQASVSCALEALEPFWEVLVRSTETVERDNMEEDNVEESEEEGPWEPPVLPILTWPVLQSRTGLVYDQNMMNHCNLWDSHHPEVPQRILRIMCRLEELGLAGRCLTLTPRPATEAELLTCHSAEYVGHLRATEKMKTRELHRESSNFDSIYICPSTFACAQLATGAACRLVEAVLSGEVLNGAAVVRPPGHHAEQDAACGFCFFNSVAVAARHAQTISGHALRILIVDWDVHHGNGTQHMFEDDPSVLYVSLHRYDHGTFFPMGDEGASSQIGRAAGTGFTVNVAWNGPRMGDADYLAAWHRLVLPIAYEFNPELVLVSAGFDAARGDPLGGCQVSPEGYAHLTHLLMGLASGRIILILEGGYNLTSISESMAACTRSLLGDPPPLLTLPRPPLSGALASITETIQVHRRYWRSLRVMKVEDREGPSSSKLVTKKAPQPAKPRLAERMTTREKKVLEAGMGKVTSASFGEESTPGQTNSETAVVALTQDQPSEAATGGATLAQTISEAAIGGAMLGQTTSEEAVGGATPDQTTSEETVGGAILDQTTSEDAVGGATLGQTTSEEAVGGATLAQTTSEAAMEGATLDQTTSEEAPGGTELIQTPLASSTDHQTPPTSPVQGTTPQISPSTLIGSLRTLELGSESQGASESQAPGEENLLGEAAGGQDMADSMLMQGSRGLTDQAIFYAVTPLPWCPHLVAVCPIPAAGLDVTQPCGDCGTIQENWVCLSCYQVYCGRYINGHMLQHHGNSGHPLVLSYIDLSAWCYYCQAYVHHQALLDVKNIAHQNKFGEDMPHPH
The test can be described thus: Fluorescence-based biochemical HDAC enzyme inhibition assay (ZMAL substrate).

In test [2] the target is HDAC1 (Homo sapiens, UniProt Q13547). The test can be described thus: Binding kinetics via the progression method (continuous HDAC assay). The class given is biochemical. Further details: purchased BPS Bioscience Inc. #50051. The following applies: 45 min, 28 °C. How it is done:
To this end, HDAC1, the substrate, and trypsin were incubated directly with the inhibitor at various concentrations and fluorescence was recorded continuously for 45 min. […] By plotting the ratio of the deacetylation rate in the presence of the inhibitor (v i) to the rate in absence of any inhibitor (v 0) as a function of the inhibitor concentration and fitting the data to an appropriate model (eq 3), the equilibrium […] K i was determined (Figure ).
To investigate the binding mode of both compounds, we performed molecular docking studies. Specifically, ST13 was docked into HDAC2 (PDB ID: 3MAX), a cocrystal structure containing an HDAC inhibitor with an ortho-aminoanilide ZBG and a phenyl group as the FPU.
Appropriate test compound concentrations were chosen based on the previously determined IC50 values. […] Each progression curve was fitted to either obtain the apparent first-order rate constant k obs (eq ) or the linear conversion rates v i and v 0 (eq ). For fast-on/fast-off inhibitors, the ratio v i/v 0 was plotted against the corresponding inhibitor concentrations.

SMILES strings stand for the structures.

With `CC(=O)Nc1ccc(C(=O)Nc2cc(-c3cccs3)ccc2N)cc1` [Cpd-60, reference compound], in test [1], the IC50 is above 10 µM.
With `O=C(CCCCCCC(=O)Nc1ccccc1)NO` [vorinostat, reference compound], the “binding mechanism at HDAC1 (progression curves, kobs versus inhibitor concentration)” value in test [2] is on record as “rapidly reached enzyme–inhibitor equilibrium”.

In general, IC50 refers to the point on the concentration scale where inhibition reaches its midpoint.
